From patent US20220322671A1, “METHODS TO REDUCE CONTAMINATION, BIOFILM AND FOULING FROM WATER SYSTEMS, SURFACES, AND PRODUCTS” (Aequor, Inc., priority 2019, published 2022) come the findings set out here.

The assay concerns L. fermentum (ATCC 9338). The experiment in a line: MIC broth microdilution, L. fermentum. In kind it is cell-based, Lactobacillus fermentum.

With `CCCCCCCCCCCCOS(=O)(=O)c1ccccc1.[Na]`, the “Minimum Inhibitory Concentration (MIC) (% v/v) M07-09 Method, L. fermentum” value was determined as 0.0075 % v/v.
